The source of these data is published antibiotic growth screens (doi:10.1038/s41589-023-01349-8).

The other results are listed elsewhere or left out.

In the test the test system is A. baumannii ATCC 17978. Put plainly: relative growth (fraction of control); higher = less inhibition. Conditions: 50 µM.
The compound `COCCNC(=O)C[C@H]1CC[C@H]2[C@@H](COC[C@@H](O)CN2C(=O)Nc2ccccc2OC)O1` had a relative growth of 1.05. With `CC(O)C(N)C(=O)O` (stereo unspecified) the figure was 0.945. With `Cc1ccc(S[C@]2(C(=O)NC3CC3)CC(=O)N(Cc3cc(C(F)(F)F)cc(C(F)(F)F)c3)[C@@H]2c2ccc(CO)cc2)cc1` the figure was 0.942; with `O=C1O[C@@H](c2ccccc2)[C@@H](c2ccccc2)N2[C@@H](c3ccc(O)cc3)[C@]3(C(=O)Nc4ccc(C#CC5(O)CCCCCC5)cc43)[C@@H](C(=O)N3CCN(c4ncccn4)CC3)[C@H]12`, 0.866. Take `CO[C@H]1CN(C)C(=O)c2cc(NC(=O)c3ccc(F)cc3)ccc2OC[C@@H](C)N(C(=O)CN(C)C)C[C@@H]1C`: the relative growth was 1.02. `O=C(C[C@@H]1CC[C@@H]2[C@H](COC[C@H](O)CN2S(=O)(=O)c2ccc(Cl)cc2)O1)NCCN1CCCCC1` yielded a relative growth of 1.01. Then `Cc1nn(C)cc1NC(=O)C[C@H]1CC[C@H]2[C@H](COc3ccc(NC(=O)C4CCOCC4)cc3C(=O)N2C)O1`, with 0.959; and `CO[C@@H]1CN(C)C(=O)c2ccc(NC(=O)C3CC3)cc2OC[C@@H](C)N(C(=O)C2CCOCC2)C[C@@H]1C`, with 0.997; and `CCCC#Cc1ccc2c(c1)O[C@H](CN(C)C(=O)c1cnccn1)[C@@H](C)CN([C@@H](C)CO)S2(=O)=O`, with 1.16. For `CCc1c(C)[nH]c(=S)c(C#N)c1C`, the relative growth was 1.1. With `O=C(CN1CCOCC1)NCC[C@H]1CC[C@@H](NC(=O)c2ccccc2F)[C@@H](CO)O1` the figure was 0.954. As for `O=C(C[C@H]1CC[C@H]2[C@@H](COC[C@@H](O)CN2S(=O)(=O)c2ccc(F)cc2)O1)N[C@@H]1CCN(Cc2ccccc2)C1`, the relative growth came to 1.01. For the compound `CC1(C)CC[C@]2(C(=O)O)CC[C@]3(C)C(=CCC4[C@@]5(C)CC[C@@H](O)C(C)(C)C5CC[C@]43C)C2C1` (stereo partly specified), the relative growth was found to be 0.857.

Compound `Br.CN(C)CCCC1(c2ccc(F)cc2)OCc2cc(C#N)ccc21` (stereo unspecified) had a relative growth of 1.14.

In the case of `CC1C2C(CC3C4CC[C@H]5C[C@@H](O)CC[C@]5(C)C4CC(=O)[C@@]32C)O[C@]12CC[C@@H](C)CO2` (stereo partly specified), the relative growth stood at 1.07. Then `CC(C)[C@@H](C(=O)O)n1cnnn1`, with 1.1; and `Cc1cc(N)c2ccccc2[n+]1CCCCCCCCCC[n+]1c(C)cc(N)c2ccccc21.[Cl-].[Cl-]`, with 0.994; and `O=C(C[C@@H]1C=C[C@H](NC(=O)C2CCC2)[C@H](CO)O1)NCCCN1CCOCC1`, with 0.904.

Compound `CO[C@H](CN(C)S(=O)(=O)c1cn(C)cn1)[C@H](C)CN(C(=O)Nc1ccc(C(F)(F)F)cc1)[C@@H](C)CO` yielded a relative growth of 0.995. Take `COC[C@@H]1CNN1C(=O)OC(C)(C)C`: the relative growth worked out at 1.14. Then `COc1ccc([C@@H]([C@H](Cc2ccccc2)OC(C)=O)N2C[C@@H](NC(=O)C(Cl)(Cl)Cl)[C@@H]3C(=NO[C@H]3c3ccccc3)[C@@H]2Cc2ccccc2)cc1`, with 0.998.

`COC[C@H]1CN(C(=O)c2ccccn2)N1` registered a relative growth of 1.06. `O=C(Cn1cnnn1)N[C@@H]1C(=O)N2C(C(=O)O)=C(CSc3nncs3)CS[C@H]12` registered a relative growth of 0.672. Turning to `C=CC[C@@H](CC(=O)N[C@H](CO)Cc1ccccc1)C(=O)NC[C@@H](OC(=O)[C@@H](CC=C)Cc1ccc(F)cc1)c1ccccc1`, the relative growth was 0.932.

The compound `COc1cc([C@@H]2c3cc4c(cc3C(OC3O[C@@H]5COC(C)O[C@H]5[C@H](O)[C@H]3O)C3COC(=O)[C@@H]32)OCO4)cc(OC)c1O` (stereo partly specified) came in with a relative growth of 0.916. Then `CCCCCOC(=O)Nc1nc(=O)n([C@@H]2O[C@H](C)[C@@H](O)[C@H]2O)cc1F`, with 1.08; and `O=C(O)CCN1C(=O)c2ccncc2C1=O`, with 0.845; and `O=C(Cc1ccncc1)NCC[C@H]1CC[C@H](NC(=O)C2CCOCC2)[C@@H](CO)O1`, with 1.04. With `CCC1NC(=O)c2cc(S(N)(=O)=O)c(Cl)cc2N1` (stereo unspecified) the figure was 1.03; with `O=C(C[C@H]1CC[C@H]2[C@@H](COC[C@H](O)CN2S(=O)(=O)c2ccc(F)cc2)O1)N[C@@H]1CCN(Cc2ccccc2)C1`, 1.08. As to `COC(=O)c1cn(CC(=O)N2CCN(C)CC2)nn1`, the relative growth stood at 1.01. `CO[C@H]1/C=C/O[C@@]2(C)Oc3c(C)c(O)c4c(O)c(c(C=NN5CCN(C)CC5)c(O)c4c3C2=O)NC(=O)/C(C)=C\C=C\C(C)[C@H](O)[C@@H](C)[C@@H](O)[C@@H](C)[C@@H](OC(C)=O)[C@@H]1C` (stereo in doubt) gave a relative growth of 0.191. The compound `CC(O)(P(=O)(O)O)P(=O)(O)O` showed a relative growth of 1.05. With `O=C(C[C@H]1CC[C@H]2[C@@H](COC[C@H](O)CN2C(=O)c2ccncc2)O1)NC1CCC1` the figure was 1.01; with `O=C(CCCCCC(=O)N/N=C/[C@H](O)[C@@H](O)[C@H](O[C@@H]1O[C@H](CO)[C@H](O)[C@H](O)[C@H]1O)[C@H](O)CO)NO`, 0.967; with `Cn1c(=O)c2c(nc(SCC(=O)NC(C)(C)C)n2C)n(C)c1=O`, 1.06. `Cc1cnc(C(=O)NCCc2ccc(S(=O)(=O)NC(=O)NC3CCCCC3)cc2)cn1` had a relative growth of 1.05.

`Cc1ccc(S(=O)(=O)N2C[C@@H](O)COC[C@H]3O[C@@H](CC(=O)N[C@H]4CCN(Cc5ccccc5)C4)CC[C@@H]32)cc1` registered a relative growth of 1.14. `C=C1C2CC[C@@]3(C)[C@H](c4ccoc4)OC(=O)C[C@]13O[C@H]1CC(=O)C(C)(C)[C@H](C(O)C(=O)OC)[C@@]21C` (stereo partly specified): the relative growth was 1.13. In turn, `O=C(C[C@@H]1C=C[C@@H](NC(=O)CN2CCOCC2)[C@H](CO)O1)NCc1cccc(F)c1` gave a relative growth of 1.09. The compound `CC(=O)[C@@]12O[C@]1(C)CC1C3CC=C4C[C@@H](O)CC[C@]4(C)C3CC[C@@]12C` (stereo partly drawn) [16beta-METHYL-16(17)-EPOXY-5-PREGNENOLONE] registered a relative growth of 1.06. With `CCc1cn(C2OCC(O)C2CO)c(=O)nc1O` (stereo unspecified) the figure was 0.932; with `C[C@@H]1CN([C@@H](C)CO)C(=O)c2cc(C#CCN(C)C)cnc2O[C@H]1CN(C)Cc1ccc2c(c1)OCO2`, 1.12.

Regarding `O=C(CCc1ccc(O)cc1)c1c(O)c([C@@H]2O[C@H](CO)[C@@H](O)[C@H](O)[C@H]2O)c(O)c([C@@H]2O[C@H](CO)[C@@H](O)[C@H](O)[C@H]2O)c1O`, the relative growth came to 1.02. `[N-]=[N+]=NCc1ccccc1C[C@@]1(C(=O)N2CCCCC2)N=C(c2ccc(OCCCO)cc2)O[C@@H]1c1ccccc1`: the relative growth is 1.14. Compound `COc1cc(C)nc(SCC(N)=O)n1` gave a relative growth of 0.872. `CCS(=O)(=O)Nc1ccc2c(c1)C(=O)N(C)C[C@H](OC)[C@H](C)CN(Cc1nccs1)[C@@H](C)CO2` returned a relative growth of 1.02. Then `O=c1nc(NCCN2CCOCC2)cn[nH]1`, with 0.996; and `COCC(=O)N(C)C[C@@H]1Oc2cc(C#Cc3ccccc3)ccc2S(=O)(=O)N([C@@H](C)CO)C[C@H]1C`, with 1.01; and `CC(=O)O[C@H]1C[C@@H](OC(C)=O)C(C)(C)[C@@H]2C[C@@H](OC(C)=O)[C@@]3(C)C4=CC(=O)O[C@@H](c5ccoc5)[C@]4(C)CC[C@@H]3[C@@]12C`, with 0.943. As to `Cc1ccc(S[C@]2(C(=O)NCCCN(C)C)CC(=O)N(Cc3cc(C(F)(F)F)cc(C(F)(F)F)c3)[C@@H]2c2ccc(CO)cc2)cc1`, the relative growth stood at 0.978. Then `O=C(C[C@@H]1CC[C@H]2[C@@H](COC[C@@H](O)CN2S(=O)(=O)c2ccc(F)cc2)O1)NCc1ccc(Cl)c(Cl)c1`, with 0.746; and `CCN(CC)CCNC(=O)c1cc(Br)c(N)cc1OC`, with 1.03. `C[C@@H]1CN([C@H](C)CO)S(=O)(=O)c2ccc(C#Cc3ccc(F)cc3)cc2O[C@@H]1CN(C)CC1CC1` registered a relative growth of 0.83. `C[C@@H]1CN([C@H](C)CO)S(=O)(=O)c2ccc(C#CCN(C)C)cc2O[C@@H]1CN(C)C(=O)CN(C)C` showed a relative growth of 0.954. The compound `CN1CCN(C(=O)C[C@@H]2CC[C@H](NC(=O)Cc3ccccn3)[C@H](CO)O2)CC1` returned a relative growth of 0.957. `O=C(CCC(=O)N1CCOCC1)Nc1c(F)c(F)nc(N2CCOCC2)c1F`: the relative growth amounted to 1.02. With `NC[C@H](c1cccc(F)c1)N1CCCCC1`, the relative growth came out at 0.831.

Take `CC1(C)O[C@@H]2[C@@H](CO[C@@]3(COS(N)(=O)=O)OC(C)(C)O[C@@H]23)O1`: the relative growth was 1.09. Then `CCCNC(=O)N1C[C@@H](O)COC[C@@H]2O[C@H](CC(=O)NCCCN3CCOCC3)CC[C@H]21`, with 0.942; and `C[C@H](NC(=O)C[C@H]1C[C@@H]2c3cc(NC(=O)Nc4ccc(C(F)(F)F)cc4)ccc3O[C@@H]2[C@@H](CO)O1)c1ccccc1`, with 1.15; and `CNC(=O)CN(C#N)c1nc(N(C)C)nc(N(C)C)n1`, with 1.05.

For `COc1cccc(C#Cc2ccc3c(c2)O[C@H](CN(C)C(C)=O)[C@H](C)CN([C@H](C)CO)S3(=O)=O)c1`, the relative growth stood at 0.937. In the case of `OCC(CO)N[C@H]1C[C@](O)(CO)[C@@H](O)[C@H](O)[C@H]1O`, the relative growth was found to be 1.18. With `CC(=O)Nc1cccc(S(N)(=O)=O)c1` the figure was 0.912; with `CO[C@H]1CN(C)C(=O)c2cc(NS(=O)(=O)c3cn(C)cn3)ccc2OC[C@@H](C)N(CCC(F)(F)F)C[C@H]1C`, 0.981; with `C=C(/C=C\CNS(=O)(=O)c1ccc(C)cc1)[C@H](O)[C@H]1CCCN1S(=O)(=O)c1ccccc1[N+](=O)[O-]`, 0.906. With `CN1CC(=O)N2[C@H](c3ccc4c(c3)OCO4)c3[nH]c4ccccc4c3C[C@@H]2C1=O` the figure was 1.31. For `Cn1cc(S(=O)(=O)N2CCN(c3ccc(F)cc3)CC2)c(=O)n(C)c1=O`, the relative growth turned out to be 1.13. With `O=C1O[C@H](c2ccccc2)[C@H](c2ccccc2)N2[C@H]1[C@@H](C(=O)N1CCCCCCC1)[C@]1(C(=O)Nc3ccc(C#CC4(O)CCCCCC4)cc31)[C@H]2c1ccc(O)cc1` the figure was 0.874; with `Cl.Cl.NCCNCCNCCN`, 1.08; with `CCS(=O)(=O)Nc1ccc2c(c1)CC(=O)N2`, 0.937. Then `Cn1nnnc1SCC1=C(C(=O)[O-])N2C(=O)C(NC(=O)C(OC=O)c3ccccc3)C2SC1.[Na+]` (stereo unspecified), with 0.899; and `CCn1c(=S)ccc2ccccc21`, with 1.11. `CC(C)OC(=O)[C@@H](C)Nc1n[nH]c(=O)[nH]c1=O` had a relative growth of 0.971.

As for `O=C(N1CCN(CCO)CC1)C(F)(F)F`, the relative growth stood at 1.05.
